For the experiment, the target named is recombinant human Myt1 (Homo sapiens (Human), UniProt Q99640). Kind of experiment: Myt1 enzymatic assay (ADP-Glo kinase assay). It is filed as biochemical. Particulars: read-out: Myt1 IC50, 18 nM enzyme, 10 uM ATP. (In general: In ADP-Glo the light output rises with the ADP produced.)

The chains behind the UniProt entries cited, without tags or fusion partners.
UniProt Q99640, whole entry: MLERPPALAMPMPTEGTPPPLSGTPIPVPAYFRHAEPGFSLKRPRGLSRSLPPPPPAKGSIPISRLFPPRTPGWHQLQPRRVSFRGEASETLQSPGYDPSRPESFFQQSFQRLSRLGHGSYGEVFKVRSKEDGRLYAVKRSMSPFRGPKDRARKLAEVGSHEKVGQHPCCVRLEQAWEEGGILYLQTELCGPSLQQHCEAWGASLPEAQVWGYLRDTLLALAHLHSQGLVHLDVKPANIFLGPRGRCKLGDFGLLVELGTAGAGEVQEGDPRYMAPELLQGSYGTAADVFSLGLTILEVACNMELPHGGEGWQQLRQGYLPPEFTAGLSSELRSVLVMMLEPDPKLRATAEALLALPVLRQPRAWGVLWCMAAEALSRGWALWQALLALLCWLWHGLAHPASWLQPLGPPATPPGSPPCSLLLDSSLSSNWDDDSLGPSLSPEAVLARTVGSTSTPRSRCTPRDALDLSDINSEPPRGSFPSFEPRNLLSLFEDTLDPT

As a reminder, the IC50 is the concentration needed to halve the response being measured. Take `Cc1ccc(O)c(C)c1-n1c(N)c(C(N)=O)c2nc(C3(C(F)(F)F)CC3)cnc21` [Compound 199]: the IC50 is below 10 nM.
